# pIC50, pKi: −log10 of the molar value.
# Protein sequences, listed by entry. Tags and fused reporters are not part of them. Residues count along the entry.
# UniProt O42275, 24-633: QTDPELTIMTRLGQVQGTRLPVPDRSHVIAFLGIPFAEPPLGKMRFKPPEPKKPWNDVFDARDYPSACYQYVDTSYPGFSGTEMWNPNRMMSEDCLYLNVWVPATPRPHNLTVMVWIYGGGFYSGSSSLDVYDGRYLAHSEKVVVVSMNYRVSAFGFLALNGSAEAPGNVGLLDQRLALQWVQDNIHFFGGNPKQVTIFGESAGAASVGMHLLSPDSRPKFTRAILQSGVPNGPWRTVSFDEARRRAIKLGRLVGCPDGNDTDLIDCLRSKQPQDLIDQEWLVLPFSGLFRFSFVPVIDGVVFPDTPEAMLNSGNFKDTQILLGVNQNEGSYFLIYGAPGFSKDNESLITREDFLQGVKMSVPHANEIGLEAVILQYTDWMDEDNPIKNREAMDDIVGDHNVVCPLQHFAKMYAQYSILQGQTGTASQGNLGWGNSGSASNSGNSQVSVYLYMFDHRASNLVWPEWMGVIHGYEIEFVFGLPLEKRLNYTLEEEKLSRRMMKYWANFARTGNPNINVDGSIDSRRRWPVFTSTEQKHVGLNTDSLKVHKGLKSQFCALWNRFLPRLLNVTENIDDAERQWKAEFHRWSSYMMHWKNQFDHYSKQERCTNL
# How the values were obtained:
# AChE [1] = biological target: T1, AChE (Electrophorus electricus, UniProt O42275); assay: biochemical; conditions: for pIC50: IC50 for AChE
# Description: The modified method of Ellman et al. was adopted to measure AChE activity. Briefly, 25 µl (0.3 U/ml) AChE from Electric eel fish (Electrophorus electricus) was incubated with and without different concentrations of drugs selected from Molecular Docking studies. The reaction was carried out for 15 min at 25°C. […] Total volume of the reaction was made up to 1 ml by Tris buffer, pH 8.0. ATCI hydrolysis was measured by colored product formation, 5-thio-2-nitrobenzoate anion by reaction between DTNB and thiocholine, a hydrolysis product of ATCI. The formation of the colored product was measured at 405 nm wavelength after 30 min. The background was determined from negative controls (omission of AChE enzyme).
# Lineweaver-Burk double reciprocal plot was plotted in order to determine the Km. […] The Ki was calculated directly from IC50 value using Cheng-Prussoffs classical equation [45]. [drawing 1]
# The reciprocals of reaction rate (1/v) for each inhibitor concentration were plotted against the reciprocals of the substrate concentrations (1/S).
# AChE [2] = biological target: T1, AChE; conditions: ITC, 25°C, Tris buffer pH 8.0
structure (smiles),measurement,setting,value
CNCCCC1c2ccccc2C=Cc2ccccc21 [protriptyline],pKi,AChE [1],~6.00
same,pIC50,AChE [1]; 0.05–0.8 mM concentration range of drugs,~4.22
same,pIC50,AChE [1]; summary statement,> 3.82
same,type of AChE inhibition,"AChE [1]; Lineweaver-Burk plot, 60 µM protriptyline",competitive inhibition
same,heat of binding,AChE [2],strongly exothermic

# Reference: PMC4139341 (PLoS ONE, 2014)
